Experimental findings from patent US20220145260A1, “METHOD FOR CULTURING HEPATIC EPITHELIOID TISSUE HAVING A STRUCTURE OF CONNECTIONS BETWEEN HEPATOCYTES AND BILE DUCT EPITHELIAL CELL” (SAPPORO MEDICAL UNIVERSITY, priority 2019, published 2022) are described below.

The test system of the data set is hepatic epithelioid tissue (small hepatocytes and bile duct epithelial cells). The data set can be described thus: Transportation of bile acid analog CLF from hepatocytes to the bile duct. It counts as cell-based, mice. Conditions: after 30 minutes; 1 month after overlaying gel.

Take cholyl lysine fluorescein [CLF]: the “uptake by hepatocytes and excretion into the bile canaliculus” value was “taken up by hepatocytes and excreted into the bile canaliculus”.
